Where two headings read alike, the source gives them in different places.

The record followed here is patent US11318232B2, “Compositions and methods for delivering drugs to a vessel wall” (Interface Biologics, Inc., priority 2018, dated 2022).

The experiment deals with Rat Aortic Smooth Muscle Cells (RASMCs). The conditions noted are these: 20 ng/mL.

Turning to `CO[C@H]1C[C@@H]2CC[C@@H](C)[C@@](O)(O2)C(=O)C(=O)N2CCCC[C@H]2C(=O)O[C@H]([C@H](C)C[C@@H]2CC[C@@H](O)[C@H](OC)C2)CC(=O)[C@H](C)/C=C(\C)[C@@H](O)[C@@H](OC)C(=O)[C@H](C)C[C@H](C)/C=C/C=C/C=C/1C` [sirolimus], the “Normalized cell growth at 72 hours” value is listed as 0.329±0.035 (drug released from sirolimus coupon prepared with Formulation 7 solvent system) and 0.291±0.031 (drug released from sirolimus coupon prepared with Formulation 9 solvent system).
